The target of assay [1] is B*1801 (Homo sapiens, UniProt P01889, A329T/A93T/A95T/C349S/D201E/D54G/D98Y/E176V/E187T/E204Q/E69T/K202T/Q94N/R155S/R180L/S121R/V306I/Y140S/Y195H/Y33H/Y91S). The assay can be described thus: B44 supertype peptide binding, B*1801.
The target of assay [2] is B*4001(B60) (Homo sapiens, UniProt P01889, A65T/A93T/A95T/D138N/D98Y/E176V/E69K/N87E/Q56L/Q94N/R180L/S121R/S35A/S48T/T167S/V36M/W171L/Y33H/Y91S). The assay can be described thus: B44 supertype peptide binding, B*4001. To be noted: read-out: B* 4001.
Assay [3] addresses B*4002 (B61) (Homo sapiens, UniProt P01889, A65T/A93T/A95T/D138N/D201E/D98Y/E176V/E204Q/E69K/K202T/N87E/Q56L/Q94N/R180L/S48T/Y33H/Y91S). The assay can be described thus: B44 supertype peptide binding, B*4002. To be noted: read-out: B* 4002.
In assay [4] the target is B*4402 (Homo sapiens, UniProt P01889, A223V/A65T/A93T/A95T/D201E/D98Y/E176V/E187L/E204Q/E69K/G107R/H137Y/K202T/L105A/L119I/N104T/N87E/Q56L/Q94N/R106L/R155S/R180D/S101N/S121R/S35A/S48T/T118I/V36M/W191S/Y140D/Y91S). The assay can be described thus: B44 supertype peptide binding, B*4402. To be noted: read-out: B* 4402.
In assay [5] the target is B*4403 (Homo sapiens, UniProt P01889, A223V/A65T/A93T/A95T/D201E/D98Y/E176V/E187L/E204Q/E69K/G107R/H137Y/K202T/L105A/L119I/N104T/N87E/Q56L/Q94N/R106L/R155S/R180L/S101N/S121R/S35A/S48T/T118I/V36M/W191S/Y140D/Y91S). Description: B44 supertype peptide binding, B*4403. To be noted: read-out: B* 4403.
Assay [6] deals with B*4501 (Homo sapiens, UniProt P01889, A329T/A65T/A93T/A95T/C349S/D138N/D201E/D98Y/E176V/E187L/E204Q/E69K/H137Y/K202T/L119W/N87E/Q56L/Q94N/R155S/R180D/S121R/S35A/S48T/V127L/V306I/V36M/W191S/Y140L/Y33H/Y91S). The assay can be described thus: B44 supertype peptide binding, B*4501. To be noted: read-out: B* 4501.
The mark [7] stands for this setting: HER 2/neu-derived B44 peptides, Table 27.
The mark [8] stands for this setting: CEA-derived B44 peptides, binding affinity, unit inferred.
Where [9] appears, read: Table 28: p53-derived B44 peptides.

Our source for the IC50 values is patent EP1903056A2, “HLA-A1, -A2 -A3, -A24, -B7, and -B44 tumor associated antigen peptides and compositions” (priority 2002, dated 2004).

Where two headings read alike, the source gives them in different places. Where only a bound is given, the exact number is not on record here.

As to `CC[C@H](C)[C@H](NC(=O)[C@H](CCCCN)NC(=O)[C@H](CCCCN)NC(=O)[C@H](CS)NC(=O)CNC(=O)[C@H](C)NC(=O)[C@H](Cc1ccccc1)NC(=O)[C@H](CCC(=O)O)NC(=O)[C@@H](N)CCC(N)=O)C(=O)N[C@@H](Cc1ccccc1)C(=O)O`, the IC50 in assay [1] (setting [7]) worked out at 53 nM; in assay [2] (setting [7]), 3690 nM; in assay [3] (setting [7]), 12 nM; in assay [4] (setting [7]), 4 nM; in assay [5] (setting [7]), 3.6 nM.
With `CC[C@H](C)[C@H](NC(=O)[C@H](CCC(=O)O)NC(=O)[C@@H]1CCCN1C(=O)[C@H](CCC(=O)O)NC(=O)[C@@H](N)CS)C(=O)N[C@@H](CCC(N)=O)C(=O)N[C@@H](CC(N)=O)C(=O)N[C@H](C(=O)N[C@H](C(=O)N[C@@H](Cc1ccc(O)cc1)C(=O)N[C@@H](CC(C)C)C(=O)N[C@@H](Cc1c[nH]c2ccccc12)C(=O)N[C@@H](Cc1c[nH]c2ccccc12)C(=O)O)[C@@H](C)O)[C@@H](C)O` [compound 401], the IC50 in assay [1] (setting [8]) amounted to 204 nM; in assay [2] (setting [8]), 1030 nM; in assay [3] (setting [8]) it was 3590 nM; in assay [5] (setting [8]) it was 508 nM; in assay [6] (setting [8]), 865 nM.
Take `C[C@H](NC(=O)[C@H](CCC(=O)O)NC(=O)[C@H](CCC(=O)O)NC(=O)[C@@H](N)CC(N)=O)C(=O)N[C@H](C(=O)NCC(=O)N[C@@H](CCC(N)=O)C(=O)N[C@@H](Cc1ccccc1)C(=O)O)[C@@H](C)O` [compound 416]: the IC50 in assay [1] (setting [8]) was 7330 nM; in assay [2] (setting [8]), greater than 10000 nM; in assay [3] (setting [8]), greater than 10000 nM; in assay [4] (setting [8]), 8370 nM; in assay [5] (setting [8]), 17100 nM; in assay [6] (setting [8]), 17700 nM.
With `CC[C@H](C)[C@H](NC(=O)[C@H](CO)NC(=O)[C@@H]1CCCN1C(=O)[C@H](CCCCN)NC(=O)[C@@H]1CCCN1C(=O)[C@H](CC(C)C)NC(=O)[C@H](CCC(=O)O)NC(=O)[C@@H]1CCCN1)C(=O)O` [compound 417], the IC50 in assay [1] (setting [8]) was 9110 nM; in assay [2] (setting [8]), greater than 10000 nM; in assay [3] (setting [8]), greater than 10000 nM; in assay [4] (setting [8]) it was greater than 10000 nM; in assay [5] (setting [8]), 5140 nM; in assay [6] (setting [8]), greater than 10000 nM.
On to `CSCC[C@H](N)C(=O)N[C@@H](CCC(=O)O)C(=O)N[C@@H](CC(C)C)C(=O)N[C@@H](C)C(=O)N[C@@H](C)C(=O)N[C@@H](CC(C)C)C(=O)N[C@@H](CS)C(=O)N[C@@H](CCCNC(=N)N)C(=O)N[C@@H](Cc1c[nH]c2ccccc12)C(=O)NCC(=O)N[C@@H](CC(C)C)C(=O)O` [compound 430], for which the IC50 in assay [1] (setting [7]) stood at 6.4 nM; in assay [2] (setting [7]), 24 nM; in assay [3] (setting [7]) it was 30 nM; in assay [4] (setting [7]) it was 17 nM; in assay [5] (setting [7]), 0.92 nM.
On to `CC(C)C[C@H](NC(=O)[C@H](CO)NC(=O)[C@H](C)NC(=O)[C@H](CC(N)=O)NC(=O)[C@@H](NC(=O)[C@@H]1CCCN1C(=O)[C@H](CC(C)C)NC(=O)[C@H](Cc1ccc(O)cc1)NC(=O)[C@@H](NC(=O)[C@H](CC(C)C)NC(=O)[C@H](CCC(=O)O)NC(=O)[C@@H](N)CC(C)C)[C@@H](C)O)[C@@H](C)O)C(=O)O` [compound 431], for which the IC50 in assay [1] (setting [7]) worked out at 88 nM; in assay [2] (setting [7]), 38 nM; in assay [3] (setting [7]), 31 nM; in assay [5] (setting [7]) it was 3.7 nM; in assay [6] (setting [7]) it was 37 nM.
Turning to `CC[C@H](C)[C@H](NC(=O)[C@H](CC(C)C)NC(=O)[C@@H](NC(=O)[C@H](Cc1ccc(O)cc1)NC(=O)CNC(=O)[C@H](CCC(N)=O)NC(=O)[C@@H](NC(=O)[C@H](CCC(=O)O)NC(=O)[C@@H](N)CCC(N)=O)C(C)C)C(C)C)C(=O)O` [compound 432], the IC50 amounted to 42 nM in assay [1] (setting [7]); 36 nM in assay [2] (setting [7]); 28 nM in assay [3] (setting [7]); 45 nM in assay [4] (setting [7]); 1.7 nM in assay [5] (setting [7]); 92 nM in assay [6] (setting [7]).
As to `CC(C)C[C@H](NC(=O)[C@@H]1CCCN1C(=O)[C@H](CO)NC(=O)[C@H](C)NC(=O)[C@H](CCCNC(=N)N)NC(=O)[C@H](CCC(N)=O)NC(=O)[C@H](CCC(=O)O)NC(=O)[C@H](C)N)C(=O)O` [compound 434], the IC50 was determined as 16 nM in assay [1] (setting [7]); 73 nM in assay [2] (setting [7]); 13 nM in assay [3] (setting [7]); 0.38 nM in assay [5] (setting [7]); 120 nM in assay [6] (setting [7]).
`CC[C@H](C)[C@H](NC(=O)[C@H](CO)NC(=O)[C@@H](NC(=O)[C@H](CC(C)C)NC(=O)[C@@H]1CCCN1C(=O)[C@H](CO)NC(=O)[C@H](C)NC(=O)[C@H](CCCNC(=N)N)NC(=O)[C@H](CCC(N)=O)NC(=O)[C@H](CCC(=O)O)NC(=O)[C@H](C)N)[C@@H](C)O)C(=O)O` [compound 435]: the IC50 is 467 nM in assay [1] (setting [7]); 19 nM in assay [2] (setting [7]); 58 nM in assay [3] (setting [7]); 5.1 nM in assay [4] (setting [7]); 2.5 nM in assay [5] (setting [7]); 11 nM in assay [6] (setting [7]).
In the case of `CC(C)C[C@H](NC(=O)[C@@H]1CCCN1C(=O)[C@H](C)NC(=O)[C@@H](NC(=O)[C@H](Cc1ccc(O)cc1)NC(=O)CNC(=O)[C@H](CC(=O)O)NC(=O)[C@@H](NC(=O)[C@H](CCC(=O)O)NC(=O)[C@@H](N)CO)[C@@H](C)O)C(C)C)C(=O)O` [compound 446], the IC50 in assay [1] (setting [7]) came to 94 nM; in assay [2] (setting [7]), 214 nM; in assay [3] (setting [7]), 184 nM; in assay [4] (setting [7]) it was 386 nM; in assay [5] (setting [7]) it was 2.4 nM; in assay [6] (setting [7]) it was 302 nM.
Regarding `CC(C)C[C@H](NC(=O)[C@H](CCC(N)=O)NC(=O)[C@H](CC(C)C)NC(=O)[C@H](CCC(=O)O)NC(=O)[C@@H](N)CCCNC(=N)N)C(=O)N[C@@H](CCCNC(=N)N)C(=O)N[C@@H](CO)C(=O)N[C@@H](CC(C)C)C(=O)N[C@H](C(=O)O)[C@@H](C)O` [compound 450], the IC50 in assay [1] (setting [7]) worked out at 638 nM; in assay [3] (setting [7]) it was 13 nM; in assay [4] (setting [7]), 465 nM; in assay [5] (setting [7]), 0.2 nM.
In the case of `CC(C)C[C@H](NC(=O)[C@@H]1CCCN1C(=O)[C@H](CO)NC(=O)[C@H](CCCNC(=N)N)NC(=O)[C@@H]1CCCN1C(=O)[C@H](C)NC(=O)[C@H](CCC(=O)O)NC(=O)[C@H](CCC(=O)O)NC(=O)[C@@H](N)CCC(=O)O)C(=O)O` [compound 498], the IC50 in assay [1] (setting [7]) worked out at 902 nM; in assay [2] (setting [7]), 4490 nM; in assay [3] (setting [7]) it was 316 nM; in assay [4] (setting [7]) it was 177 nM; in assay [5] (setting [7]) it was 362 nM; in assay [6] (setting [7]), 307 nM.
`CC(C)C[C@H](NC(=O)[C@@H]1CCCN1C(=O)[C@H](CO)NC(=O)[C@H](CCCNC(=N)N)NC(=O)[C@@H]1CCCN1C(=O)[C@H](C)NC(=O)[C@H](CCC(=O)O)NC(=O)[C@H](CCC(=O)O)NC(=O)[C@H](CCC(=O)O)NC(=O)[C@@H](N)CO)C(=O)N[C@@H](C)C(=O)O` [compound 538]: the IC50 in assay [1] (setting [7]) was 1320 nM; in assay [3] (setting [7]) it was 5110 nM; in assay [4] (setting [7]), 8550 nM; in assay [5] (setting [7]), 158 nM.
As to `C[C@H](NC(=O)[C@H](Cc1c[nH]cn1)NC(=O)[C@H](Cc1ccc(O)cc1)NC(=O)[C@H](CCC(=O)O)NC(=O)[C@@H](NC(=O)[C@H](CCC(=O)O)NC(=O)[C@@H](N)CC(=O)O)[C@@H](C)O)C(=O)N[C@@H](CC(=O)O)C(=O)NCC(=O)NCC(=O)O` [compound 563], the IC50 stood at 613 nM in assay [1] (setting [7]), 16800 nM in assay [3] (setting [7]), 3890 nM in assay [4] (setting [7]) and 269 nM in assay [5] (setting [7]).
In the case of `CC(C)[C@H](NC(=O)[C@@H]1CCCN1C(=O)[C@@H]1CCCN1C(=O)[C@H](C)NC(=O)[C@H](C)NC(=O)[C@H](CCC(=O)O)NC(=O)[C@@H]1CCCN1)C(=O)O` [compound 640], the IC50 was 14200 nM in assay [1] (setting [9]); greater than 10000 nM in assay [2] (setting [9]); greater than 10000 nM in assay [3] (setting [9]); greater than 10000 nM in assay [4] (setting [9]); 5430 nM in assay [5] (setting [9]); greater than 10000 nM in assay [6] (setting [9]).
